Earlier results on one compound are cited in patent US5852213A, “Mercaptoketones and mercaptoalcohols and a process for their preparation” (American Cyanamid Company, priority 1997, dated 1998).

The target in the data set is human collagenase. To be noted: Journal of Medicinal Chemistry 36, 4030-4039 (1993); read-out: IC50, inhibitor of human collagenase; cited from earlier work.

SMILES strings stand for the structures.

Consider `CNC(=O)[C@H](Cc1ccc(OC)cc1)NC(=O)C(CC(C)C)C(S)CC(=O)OCc1ccccc1` (stereo partly shown), for which the IC50 was 2 nM.

What is called IC50 is the concentration that inhibits the measured activity by half.
